# Measured values: patent US20210230213A1, “ARAMCHOL SALTS” (GALMED RESEARCH AND DEVELOPMENT LTD., priority 2013, published 2021)
# Assays:
# [1] = In vivo permeability / PK after intrajejunal administration in cannulated rats (Example 7); parameters: species or system male Wistar rats; details: rat
# Protocol: An in vivo permeability study of Aramchol salts was performed in male Wistar rats cannulated in the jugular vein and in the jejunum. Intestinal cannulation was performed in order to bypass protonation of Aramchol salts in acidic gastric pH. Aramchol salts solubilized in PBS (30 mg/mL) were administered to rats intestine (jejunum) in a dose of 100 mg/kg (based on free acid), via a cannula inserted into the proximal side of the jejunum. A suspension of Aramchol free acid (in PBS, 30 mg/mL) was administered via the same route and was used as control. Blood samples were withdrawn via a cannula inserted into jugular vein at pre-determined time points (pre-dose, 1 hr, 2 hr, 4 hr, 8 hr, 12 hr, 24 hr post dose). Plasma concentrations of Aramchol (free acid) were measured using a liquid chromatography-tandem mass spectrometry (LC-MS-MS) method by Analyst Bioanalytical Laboratories, Israel. All PK parameters were calculated using non-compartmental analysis. Only those plasma concentrations equal to or greater than the lower limit of quantitation (LOQ) (48.66 ng/mL) were used in the analysis. […] The following PK parameters were calculated: maximum plasma concentration (Cmax), time to Cmax (Tmax), area under the plasma concentration-time curve from time of administration until the last plasma concentration (AUC0-4), AUC/dose, elimination half-life (t½). […]
# [2] = Pharmacokinetics of capsules in dogs, single dose and BID (Example 8)
# Protocol: Capsules containing 100 mg of Aramchol were dosed to dogs as either the free acid or the meglumine salt.
# The complete data-set across all animals and time-points for each dose form (free acid or meglumine salt) were fit to single compartment PK models with first order rate of absorption Ka (h−1) and elimination parameterised by CL and V (rate of elimination=CL/V, h−1). For the meglumine salt group, the first dose data for M5 was removed.
# Capsules containing 100 mg of Aramchol were dosed to dogs as either the free acid or the meglumine salt BID. […] A clinical study that investigated the plasma concentration of Aramchol after oral dosing of 300 mg BID at steady state was conducted in 16 healthy volunteers.
# [3] = Saturated solubility in buffer solutions and bio-relevant media at 37° C. (Example 6); assay type: physicochemical; details: for solubility: 37° C.
# Protocol: The saturated solubility of N-methylglucamine, Tromethamine and L-Lysine was determined in different buffer solutions and bio-relevant media: HCl buffer pH 1.2, Acetate buffer pH 4.5, Saline pH 5.5, Phosphate buffer pH 6.5, Phosphate buffer pH 7.0, PBS pH 7.4, FaSSIF (pH 6.5), FeSSIF (pH 5.0) and demi-water (pH 7.8, was not adjusted after dissolution). Experiments were performed by slurrying a 5 mL (˜150 mg) saturated solution for 30 minutes and 24 hours at 37° C. […] All experiments were performed in duplicate.
# [4] = Aqueous solubility at 20° C., shake-flask, stepwise water addition (Example 2); assay type: physicochemical; details: for Solubility in water: 20° C.; for pH of solution: after solubility test in water
# Protocol: The Aramchol salts of the present invention were further assessed for their solubility in water. […] 5 mg of each salt was weighed. Water was added stepwise until a clear solution was obtained (Table 2, solubility in water). The pH of each solution was measured (Table 2, pH after solubility).
# [5] = Twice daily administration for 10 days of Aramchol and Aramchol meglumine in humans (Example 9); assay type: in vivo
# Protocol: 300 mg aramchol free acid were administered to human subjects twice daily, and 383 mg aramchol meglumine salt were administered to human subjects twice daily, as detailed in FIG. 13.
# [6] = Phosphate buffer pH 6.5, 30 min
# [7] = Phosphate buffer pH 7.0, 30 min
substance,measurement,setting,value
"3β-arachidylamido-7α,12α-dihydroxy-5β-cholan-24-oic acid N-methylglucamine salt",increase in AUC/dose compared to Aramchol free acid,[1],2.6 fold
same,AUC0-12 h/AUCinf,[2]; day 1 AUCinf with animal M5 removed,1.02
same,AUC0-12 h/AUCinf,"[2]; day 11 AUC0-12 h over day 1 AUCinf, all animals",1.38
same,exposure higher relative to the free acid,[2]; overall non-compartmental analysis,approximately 30%
same,V,[2]; single compartment PK model,11474
same,Ka,"[2]; single compartment PK model, first order absorption",0.11 h⁻¹
same,increase in solubility from pH 7.4 (PBS) to pH 7.8 (demi-water),[3],5 fold
same,solubility,"[3]; Demi-Water (pH 7.8), 30 min",156.51 mg/ml ±
same,solubility,"[3]; Demi-Water (pH 7.8), 24 h, listed as N-Methyl glucamine",109.72 mg/ml ±
same,solubility,"[3]; Demi-Water (pH 7.8), 24 h, listed as N-methylglucamine salt",remained as a solution
same,solubility,"[3]; FaSSIF (pH 6.5), 30 min",Gel
same,solubility,"[3]; FaSSIF (pH 6.5), 24 h",Gel
same,solubility,"[3]; FeSSIF (pH 5.0), 30 min",Gel
same,solubility,"[3]; FeSSIF (pH 5.0), 24 h",Gel
same,solubility,"[3]; PBS pH 7.4, 30 min",31.83 mg/ml ±
same,solubility,"[3]; PBS pH 7.4, 24 h",Gel
same,solubility,[3]; [6],Gel
same,solubility,"[3]; Phosphate buffer pH 6.5, 24 h",Gel
same,solubility,[3]; [7],18.85 mg/ml ±
same,solubility,"[3]; Phosphate buffer pH 7.0, 24 h",Gel
same,solubility,"[3]; Saline pH 5.5, 30 min",0.04 mg/ml ±
same,Solubility in water,[4]; XRPD: Amorphous,113 to 1130 mg/mL
same,pH of solution,[4]; XRPD: Amorphous,7
same,AUCss and Cavg / exposure relative to aramchol free acid,[5]; listed as Aramchol meglumine,double exposure
same,AUCss and Cavg / exposure relative to aramchol free acid,[5]; listed as armachol meglumine salt,about twice higher
"3β-arachidylamido-7α,12α-dihydroxy-5β-cholan-24-oic acid lysine salt [L-Lysine]",solubility,"[3]; Demi-Water (pH 7.8), 30 min",49.27 mg/ml ±
same,solubility,"[3]; Demi-Water (pH 7.8), 24 h",Gel
same,solubility,"[3]; Demi-Water (pH 7.8), 24 h, listed as lysine salt",turned into gets
same,solubility,"[3]; FaSSIF (pH 6.5), 30 min",Gel
same,solubility,"[3]; FaSSIF (pH 6.5), 24 h",Gel
same,solubility,"[3]; FeSSIF (pH 5.0), 30 min",Gel
same,solubility,"[3]; FeSSIF (pH 5.0), 24 h",Gel
same,solubility,"[3]; PBS pH 7.4, 30 min",32.72 mg/ml ±
same,solubility,"[3]; PBS pH 7.4, 24 h",Gel
same,solubility,[3]; [6],Gel
same,solubility,"[3]; Phosphate buffer pH 6.5, 24 h",Gel
same,solubility,[3]; [7],21.16 mg/ml ±
same,solubility,"[3]; Phosphate buffer pH 7.0, 24 h",Gel
same,solubility,"[3]; Saline pH 5.5, 30 min",0.05 mg/ml ±
same,Solubility in water,[4]; XRPD: Amorphous,10 to 32 mg/mL
same,Solubility in water,[4]; XRPD: Crystalline,11 to 35 mg/mL
same,pH of solution,[4]; XRPD: Amorphous,8
same,pH of solution,[4]; XRPD: Crystalline,8
